What was measured:
Human FcRn (human) = Human FcRn (human) (UniProt P55899); assay: Octet BLI, FcRn on HIS1K sensor, pH 6.0
Human FcγRIIB (human) = Human FcγRIIB (human) (UniProt P31994); assay: Octet BLI, receptor on HIS1K sensor
Human FcγRIIIB (human) = Human FcγRIIIB (human) (UniProt O75015); assay: Octet BLI, receptor on HIS1K sensor
Human FcγRI (human) = Human FcγRI (human) (UniProt P12314); assay: Octet BLI, receptor on HIS1K sensor
Human FcγRIIA (human) = Human FcγRIIA (human) (UniProt P12318); assay: Octet BLI, receptor on HIS1K sensor

control IgG (7101+7103) (antibody)
Response (Human FcRn (human)): 0.226 nm | Response (Human FcγRIIB (human)): 0.171 nm | Response (Human FcγRIIIB (human)): 0.0847 nm | Response (Human FcγRI (human)): 0.54 nm | Response (Human FcγRIIA (human)): 0.483 nm

Reference: patent US20240409659A1
